This data set concerns mice. The data set is described as follows: Lethality of phenylalkylamine Ca2+ channel blockers in mice. The data set is classed as in vivo. Conditions: 10 mg/kg i.v. An excerpt: […]. The doses administered for these studies were selected to reflect the previously characterized potency of each of the drugs on blocking L-type Ca^2+ channel function. […].

The record followed here is patent US20100137403A1, “METHOD FOR ENHANCING COGNITION OR INHIBITING COGNITIVE DECLINE” (priority 2008, published 2010).

For gallopamil, the “Deaths (n = 5)” value is 4.
